This note sets out measurements from ChEMBL document CHEMBL4325838, “Norbornane-based cationic antimicrobial peptidomimetics targeting the bacterial membrane” (Eur J Med Chem, 2018).

Assay [1] relates to Acinetobacter baumannii. In words: Antibacterial activity against Acinetobacter baumannii ATCC 19606 after 18 to 20 hrs by broth microdilution assay. The note with it: ATCC 19606 = CIP 70.34 = JCM 6841. Format: functional. A digest of the protocol:
(§1)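 Bacteria grown overnight at 37 °C with shaking in nutrient broth or Mueller-Hinton broth (MHB). Cultures were diluted 50-fold in MHB and grown 1.5–3 h to mid-log phase, then set at 5×10^5 CFU/mL final. Compounds were 2-fold serially diluted, final 32 to 0.015 µg/mL, 1% DMSO. After 18–20 h at 37 °C, MIC was read visually as the lowest concentration with no visible growth. Two independent experiments of n = 2 (n = 4).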

The subject of assay [2] is Pseudomonas aeruginosa. In words: Antibacterial activity against Pseudomonas aeruginosa ATCC 27853 after 18 to 20 hrs by broth microdilution assay. The assay is classed as functional. A digest of the protocol: as §1
(In general: Broth dilution looks for growth in wells or tubes with falling amounts of substance.)

Assay [3] deals with Acinetobacter baumannii. The note with it: ATCC 19606 = CIP 70.34 = JCM 6841, 10 ug/disc.
Assay [4] concerns Pseudomonas aeruginosa. The note with it: ATCC 27853, 10 ug/disc.
In assay [5] the test system is Klebsiella pneumoniae. In words: Antibacterial activity against multidrug-resistant Klebsiella pneumoniae ATCC 700603 after 18 to 20 hrs by broth microdilution assay. The assay is classed as functional. A digest of the protocol: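 Strains were grown overnight at 37 °C with shaking in nutrient broth or MHB, diluted 50-fold in MHB and grown 1.5–3 h to mid-log. Compounds were 2-fold serially diluted in MHB at 32 to 0.015 µg/mL final (1% DMSO) with 5×10^5 CFU/mL. After 18–20 h at 37 °C, MIC was read visually as the lowest concentration with no visible growth. Two independent experiments of n = 2 (n = 4).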

Assay [6] relates to Klebsiella pneumoniae. The note with it: ATCC 13883, 10 ug/disc.
Assay [7] has as its system Escherichia coli. In words: Antibacterial activity against Escherichia coli ATCC 25922 after 18 to 20 hrs by broth microdilution assay. The assay is classed as functional. A digest of the protocol: as §1

For COLISTIN SULFATE, the minimal inhibitory concentration (MIC) – broadly, the lowest concentration that inhibits growth of the organism – in assay [1] stood at 0.06 µg/mL; in assay [2] it was 0.25 µg/mL; in assay [5] it was 0.03 µg/mL; in assay [7], 0.06 µg/mL. Moreover, the results for the IZ in assay [3], in assay [4] and in assay [6] were 20 mm, 19 mm and 20 mm, respectively.
